The values that follow come from patent US20260285942A1, “Peptide Having Affinity for Human Transferrin Receptor” (JCR PHARMACEUTICALS CO., LTD., priority 2021, published 2026).

Data set [1] is described as follows: Immunohistochemical staining of cerebellar tissue of hTfR knock-in mice. The class given is in vivo, hTfR-KI mouse. The note with it: both 6 hours and 24 hours after the administration; 5 mg/kg intravenous. The method, then: Each of purified products of the hTfR affinity peptide-trastuzumabs 1 to 5 obtained in Example 9 was intravenously administered to two male hTfR-KI mice at a dose of 5 mg/kg. […] After 6 and 24 hours from the administration, the mice were euthanized and subjected to whole body perfusion with physiological saline, and the brains (portion including the cerebrum and the cerebellum) were collected. The weights (wet weight) of the excised brains were measured, subsequently each of the brains was divided in the sagittal plane, and one half of the brain was used for measuring the concentration of the hTfR affinity peptide-trastuzumabs 1 to 5 in the tissue, while the other half was subjected to immunohistochemical staining.
Immunohistochemical staining of the hTfR affinity peptide in the brain tissue was generally performed by the following procedure. The brain tissue collected for immunohistochemical staining was immersed in OCT Compound (Sakura Finetek Japan Co., Ltd.) and rapidly frozen to −80° C. using Histo-Tek PINO (Sakura Finetek Japan Co., Ltd.), and a frozen block of tissue was produced. […] Next, Fluorescein Amplification Working Solution included in TSA-Plus Fluorescence Kit (PerkinElmer, Inc.) was dropped onto the tissue slice and was allowed to react for 15 minutes in the dark. […]

Data set [2] in a line: Quantification in brain tissue of cynomolgus monkeys 8 hours after administration. The class given is in vivo, cynomolgus monkey (Macaca fascicularis). The conditions noted are these: 8 hours after 5 mg/kg intravenous. Here is the method:
(§1) The brain tissue for concentration measurement was homogenized in T-PER (Thermo Fisher Scientific, Inc.) containing Protease Inhibitor Cocktail (Sigma-Aldrich Co., LLC). The obtained homogenate was centrifuged (3000 g, 5 min), and the supernatant was collected. The amounts of the hTfR affinity peptide-trastuzumab and trastumab contained in the homogenate supernatant were measured by the following method. First, equal amounts of SULFO-Goat Anti Human IgG (h+l) (Bethyl Laboratories, Inc.) (0.5 μg/mL) and Goat Anti Human Kappa Light chain-biotin (IBL) (0.5 μg/mL) were mixed, the mixture was dispensed on a sampling plate in 25-μL portions, and the sampling plate was shaken with a microplate mixer at room temperature for 1 hour to prepare reaction solutions. […] Next, 150 μL each of Read buffer T (Meso Scale Diagnostics, LLC) was added to each well, and the amount of luminescence from each well was measured using Sector™ Imager 6000 reader. The amount of the hTfR affinity peptide-trastuzumab contained per gram weight (wet weight) of brain (concentration of hTfR affinity peptide-trastuzumab in brain tissue) was calculated by creating a calibration curve from the measured values of standard samples of the hTfR affinity peptide-trastuzumab at known concentrations, and interpolating the measured value of each specimen into this calibration curve. […]

Data set [3] can be described thus: Quantification in various organs of cynomolgus monkeys 8 hours after administration. The class given is in vivo, cynomolgus monkey (Macaca fascicularis). The conditions noted are these: 8 hours after 5 mg/kg intravenous. Here is the method:
as §1

Data set [4] is described as follows: Peripheral blood pharmacokinetics after single intravenous administration to cynomolgus monkey. The class given is in vivo, cynomolgus monkey (Macaca fascicularis). The note with it: 5 mg/kg, one male cynomolgus monkey.
The nature of data set [5]: Migration to brain: concentration in brain tissue of hTfR knock-in mice after intravenous administration. The class given is in vivo, hTfR-KI mouse. The conditions noted are these: 5 mg/kg intravenous, male hTfR-KI mice. Here is the method: Next, whether the hTfR affinity peptide-trastuzumabs 1 to 5 pass through the BBB and migrate into the brain when injected intravenously, was evaluated using hTfR knock-in mouse (hTfR-KI mouse) in which the gene encoding the extracellular region of mouse transferrin receptor had been replaced with a gene encoding the extracellular region of the human transferrin receptor gene. The hTfR-KI mouse was generally produced by the following method.
A DNA fragment having a nucleotide sequence set forth in SEQ ID NO:51, in which a neomycin resistance gene flanked by loxP sequences was disposed on the 3′ side of a cDNA encoding a chimeric hTfR whose intracellular region had the amino acid sequence of mouse hTfR and whose extracellular region had the amino acid sequence of human hTfR, was chemically synthesized. […] White F1 mice were selected, DNA extracted from the tail tissue was analyzed, and a mouse in which the mouse transferrin receptor gene had been replaced with chimeric hTfR on the chromosome was designated as an hTfR-KI mouse. […]
The brain tissue for concentration measurement was homogenized in T-PER (Thermo Fisher Scientific, Inc.) containing Protease Inhibitor Cocktail (Sigma-Aldrich Co., LLC). […] The amounts of the hTfR affinity peptide-trastuzumab and trastumab contained in the homogenate supernatant were measured by the following method. […]

In the case of “Trastuzumab: antibody medicine exerting an anti-tumor effect by specifically binding to HER2”, in data set [1], the “immunohistochemical staining in cerebellar tissue / brain parenchyma” value is listed as “no staining was recognized”. In addition, in data set [2], the “concentration in cerebral cortex, cerebellum, hippocampus, midbrain, pons, medulla oblongata, caudate nucleus, putamen, globus pallidus, and thalamus” value was “hardly detected”; the concentration in retina entry is given as “detected at almost the same concentration”. For the same substance, in data set [3], the concentration in heart result is reported as “detected at high concentrations”. This substance also displayed a t½β in data set [4] of 2.27 h. Also, the “Concentration in brain tissue” value in data set [5] (after 6 hours from administration) amounted to 0.07 μg/g · tissue. Further, in data set [5] (after 24 hours from administration), the “Concentration in brain tissue” value turned out to be 0.04 μg/g · tissue.
